# Curated experimental data: melting point values

Values as listed in the OPERA 2.9 repository of K. Mansouri.

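The OPERA project collected these measurements from public sources as training and test data for property models. One number stands for a compound and property, with no spread given. Method and conditions are not stated for these values. A value may pool stereoisomers or salt forms, and the file does not say which form was measured. Some entries may be limits or estimates that an upstream database listed as plain numbers.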

Melting points are in °C. "via" names the databases from which the curators took the value.

compound,MP (°C),via
O=C1NC(=O)C2(CCNCC2)N1,245,OCHEM
Nn1cnnc1-c1ccccc1,116,OCHEM
CC(=O)OC(CC(C)C)CC(C)C,-79.5,eChemPortal
CNc1ccc(Br)cn1,70,OCHEM
N#CCC(=O)NCc1ccco1,94,OCHEM
Cl/C(=C(/Cl)c1ccccc1)c1ccccc1,144,OCHEM
CNCCCC1c2ccccc2C=Cc2ccccc21,170,PubChem
CCCOc1ccc2ccccc2c1C=O,66.5,OCHEM
COC(=O)c1cccc(S(=O)(=O)Cl)c1,52,OCHEM
Nc1sc2c(c1C(=O)c1ccc(Cl)cc1)CCCC2,140,OCHEM
COc1ccccc1NC(=O)CC#N,88.5,OCHEM
C#CC(C)(O)CCC=C(C)C (stereo not given),-72,eChemPortal
CCCCOCCOC(=O)c1ccccc1,-57.5,eChemPortal
CCCCCCCC/C=C\CCCCCCCCNCCCNCCCNCCCN,56,eChemPortal
CCOC(=O)c1sc(-c2ccc(Br)cc2)cc1N,106,OCHEM
Cc1ccc(S(=O)(=O)n2cc(-c3ncc(F)c(N[C@H]4C5CCC(CC5)[C@@H]4C(=O)O)n3)c3cc(F)cnc32)cc1,253.4,eChemPortal
O=C(Cc1nc2ccccc2[nH]1)C(F)(F)F,250,OCHEM
Cc1c(Cl)ccc2c1C(=O)OC2=O,121,OCHEM
O=C(O)Cc1ccc(-n2cnnn2)cc1,172,OCHEM
CC(=O)OCc1ccc2c(c1)OCO2,51,PubChem
O=C(CCl)Nc1cc(C2CC2)nn1-c1ccccc1,121,OCHEM
NC(C(=O)O)c1ccc(Cl)cc1Cl (stereo not given),216,OCHEM
NC(=O)Cc1nc2ccccc2[nH]1,230,OCHEM
CC(C)(C)c1cc2c(O)c(c1)Cc1cc(C(C)(C)C)cc(c1O)Cc1cc(C(C)(C)C)cc(c1O)Cc1cc(C(C)(C)C)cc(c1O)C2,341.5,OCHEM
Cc1cccc(C(N)=O)n1,118,OCHEM
CCOc1ccc(C(=O)O)cc1OC,200,OCHEM
CC(=O)Nc1ccc(C)c(S(=O)(=O)Cl)c1,96,OCHEM
Cc1cc(C)c(OCC(=O)O)c(C)c1,151,OCHEM
OCC(I)CC(F)(F)C(F)(F)C(F)(F)C(F)(F)C(F)(F)C(F)(F)F (stereo not given),45,ChemicalBook
O=C(O)c1cn[nH]n1,213,OCHEM
COc1cc2c(c(OC)c1)C(=O)C(=O)N2,290,OCHEM
O=C(O)c1cccc(CN2C(=O)c3ccccc3C2=O)c1,207,OCHEM
COc1ccc2cc(CCl)c(Cl)nc2c1,134,OCHEM
FC1CC(F)(F)C(F)(F)C1(F)F (stereo not given),20.75,"ChemicalBook, eChemPortal"
O=C1CCCCCCCCCCOCCCCO1,-27.1,eChemPortal
O=C(O)c1ccc2c(c1)C(=O)N(C1CCCCC1)C2=O,194,OCHEM
Cn1c(C2CC2)n[nH]c1=S,181,OCHEM
O=C(O)Cn1nc(-c2ccccc2)oc1=O,197,OCHEM
O=C(c1ccccn1)N1CCNCC1,232,OCHEM
CCOP(=O)(CO)OCC,-34,eChemPortal
COc1ccc(C(=O)NC(C(=O)O)C(C)C)cc1 (stereo not given),164,OCHEM
O=C(O)CSc1nnc(NC2CCCCC2)s1,158,OCHEM
CCOC(=O)CN1C(=O)CNC1=O,110,OCHEM
Cc1c(C(=O)O)oc2ccc(Cl)cc12,256,OCHEM
C=CC(=O)OCCCCOC(=O)Oc1ccc(C(=O)Oc2ccc(OC(=O)c3ccc(OC(=O)OCCCCOC(=O)C=C)cc3)c(C)c2)cc1,60.7,eChemPortal

The 3 highest values of MP among the entries above:

compound	MP (°C)	via
CC(C)(C)c1cc2c(O)c(c1)Cc1cc(C(C)(C)C)cc(c1O)Cc1cc(C(C)(C)C)cc(c1O)Cc1cc(C(C)(C)C)cc(c1O)C2	341.5	OCHEM
COc1cc2c(c(OC)c1)C(=O)C(=O)N2	290	OCHEM
Cc1c(C(=O)O)oc2ccc(Cl)cc12	256	OCHEM